# According to patent publication US20240181072A1, “Anti-HER2 Antibody-Immune Agonist Conjugate and Applications Thereof” (GENEQUANTUM HEALTHCARE (SUZHOU) CO., LTD., priority 2021, published 2024):
# How the values were obtained:
# [1] = tested on: NCI N87 human gastric cancer cells; assay: In vivo anti-tumor efficacy, NCI N87 CDX model in SCID Beige mice; conditions: 5 mg/kg intravenously, subcutaneous NCI N87 tumors, start at 173 mm^3 on average (FIG. 7)
# Description: For in vivo anti-tumor efficacy study, 1×10^7 NCI N87 human gastric cancer cells were inoculated subcutaneously in the right flank in SCID Beige mice. After 6 days, when tumor volume reached 173 mm^3 on average, the tumor bearing mice were assigned and administered intravenously of Ab0001 or the test immunoconjugate (AC102-5-1-1 or AC102-6-1-1) at 5 mg/kg. The tumor volume was measured twice weekly with calipers.
# [2] = tested on: MC38^hHER2 murine colorectal cancer cells overexpressing human HER2; assay: In vivo anti-tumor efficacy, MC38 hHER2 model in C57BL/6 mice; conditions: 10 mg/kg intravenously, subcutaneous MC38 hHER2 tumors, start at 90 mm^3 on average (FIG. 8)
# Source text: 5×10^5 MC38^hHER2 murine colorectal cancer cells overexpressing human HER2 were inoculated subcutaneously in the right flank in C57BL/6 mice. After 8 days, when tumor volume reached 90 mm^3 on average, the tumor bearing mice were assigned and administered intravenously of Ab0001 or AC102-6-1-1.
substance,measurement,setting,value
Trastuzumab [Ab0001],anti-tumor activity (tumor volume),[1],very limited anti-tumor activity
same,anti-tumor activity (tumor volume),[2],no obvious anti-tumor activity
